Measured values as given in PubChem BioAssay (NCI).
The entries are a selection whose mix differs from that of the whole data set.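 Negative percent growth values reflect cell death: -40 means 40% of the cells present at the start died, and -100 means all died.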 Activity calls are given as the source filed them. The calls were made as follows: active = growth percent below 10; inactive = the rest.

Tests used:
Assay in all cases: NCI-60 one-dose screen, 48 h (100 = growth as untreated, 0 = no growth, -100 = all killed)
Settings in all cases: 10 µM unless noted
MOLT-4 leukemia = system: MOLT-4 leukemia
SR leukemia = system: SR leukemia
RPMI-8226 leukemia = system: RPMI-8226 leukemia
OVCAR-8 ovarian = system: OVCAR-8 ovarian
OVCAR-5 ovarian = system: OVCAR-5 ovarian
OVCAR-4 ovarian = system: OVCAR-4 ovarian
SK-OV-3 ovarian = system: SK-OV-3 ovarian
OVCAR-3 ovarian = system: OVCAR-3 ovarian
HS 578T breast = system: HS 578T breast
IGROV1 ovarian = system: IGROV1 ovarian

Measured: growth

COC1OC(CNCCCl)C2OC(C)(C)OC12 (stereo unspecified)
inactive: MOLT-4 leukemia 115% | SR leukemia 114% | RPMI-8226 leukemia 119% | OVCAR-8 ovarian 98.4% | OVCAR-5 ovarian 97.8% | OVCAR-4 ovarian 102% | SK-OV-3 ovarian 94.8% | OVCAR-3 ovarian 126% | HS 578T breast 129%

ClCCN1CCNCC1
inactive: MOLT-4 leukemia 107% | SR leukemia 108% | RPMI-8226 leukemia 104% | OVCAR-8 ovarian 101% | OVCAR-5 ovarian 115% | OVCAR-4 ovarian 109% | SK-OV-3 ovarian 105% | IGROV1 ovarian 118% | OVCAR-3 ovarian 108% | HS 578T breast 105%

CCN(CC)[P+](c1ccc(OC)cc1OC)(N(CC)CC)N(CC)CC
active: SR leukemia 2.75% | OVCAR-8 ovarian -0.745%
inactive: MOLT-4 leukemia 52.8% | RPMI-8226 leukemia 11.5% | OVCAR-5 ovarian 83.3% | OVCAR-4 ovarian 35.3% | SK-OV-3 ovarian 64.2% | IGROV1 ovarian 49.2% | OVCAR-3 ovarian 13.1% | HS 578T breast 66%

O=P1(N(CCCl)CCCl)OCCC2CCCCN21 (stereo unspecified)
inactive: MOLT-4 leukemia 101% | SR leukemia 102% | RPMI-8226 leukemia 91.1% | OVCAR-8 ovarian 101% | OVCAR-5 ovarian 116% | SK-OV-3 ovarian 106% | IGROV1 ovarian 107% | OVCAR-3 ovarian 114% | HS 578T breast 116%

O=[As](O)(c1ccc(Cl)cc1)C1CCCCC1O (stereo unspecified)
inactive: MOLT-4 leukemia 82.4% | SR leukemia 96% | RPMI-8226 leukemia 59.9% | OVCAR-8 ovarian 88.9% | OVCAR-5 ovarian 90.3% | OVCAR-4 ovarian 98.5% | SK-OV-3 ovarian 101% | OVCAR-3 ovarian 96.6% | HS 578T breast 96.3%

O=[As](O)(c1cccc(O)c1)c1cccc(O)c1
inactive: MOLT-4 leukemia 113% | SR leukemia 112% | RPMI-8226 leukemia 80.5% | OVCAR-8 ovarian 102% | OVCAR-5 ovarian 89.5% | OVCAR-4 ovarian 105% | SK-OV-3 ovarian 103% | IGROV1 ovarian 128% | OVCAR-3 ovarian 121% | HS 578T breast 106%

CCN(CCI)Cc1cccc2ccccc12
inactive: MOLT-4 leukemia 103% | SR leukemia 99.3% | RPMI-8226 leukemia 98.3% | OVCAR-8 ovarian 99.8% | OVCAR-5 ovarian 102% | OVCAR-4 ovarian 108% | SK-OV-3 ovarian 103% | IGROV1 ovarian 101% | OVCAR-3 ovarian 107% | HS 578T breast 99.8%

OP1OCCO1
inactive: MOLT-4 leukemia 97.1% | SR leukemia 82.2% | RPMI-8226 leukemia 95.7% | OVCAR-8 ovarian 96.6% | OVCAR-5 ovarian 109% | OVCAR-4 ovarian 107% | SK-OV-3 ovarian 108% | IGROV1 ovarian 100% | OVCAR-3 ovarian 114% | HS 578T breast 110%

Cc1cccc(Nc2c([N+](=O)[O-])cc([N+](=O)[O-])cc2[N+](=O)[O-])c1
inactive: MOLT-4 leukemia 78.9% | SR leukemia 91.8% | RPMI-8226 leukemia 62.8% | OVCAR-8 ovarian 86.1% | OVCAR-5 ovarian 103% | SK-OV-3 ovarian 94.3% | IGROV1 ovarian 85.7% | OVCAR-3 ovarian 13.9% | HS 578T breast 96.1%

O=[N+]([O-])c1ccc(SSc2ccc([N+](=O)[O-])cc2[N+](=O)[O-])c([N+](=O)[O-])c1
inactive: MOLT-4 leukemia 96.7% | SR leukemia 96.4% | RPMI-8226 leukemia 91% | OVCAR-8 ovarian 99.7% | OVCAR-4 ovarian 103% | SK-OV-3 ovarian 99.8% | IGROV1 ovarian 101% | OVCAR-3 ovarian 112% | HS 578T breast 108%

O=P(O)(NCCCO)N(CCCl)CCCl
inactive: MOLT-4 leukemia 104% | SR leukemia 122% | RPMI-8226 leukemia 95.3% | OVCAR-8 ovarian 89% | OVCAR-5 ovarian 88.8% | OVCAR-4 ovarian 104% | SK-OV-3 ovarian 89.7% | OVCAR-3 ovarian 116% | HS 578T breast 107%

NCCc1ccc(N(CCCl)CCCl)cc1
active: SR leukemia -17.6%
inactive: MOLT-4 leukemia 14.7% | RPMI-8226 leukemia 74% | OVCAR-8 ovarian 42.7% | OVCAR-5 ovarian 93.9% | OVCAR-4 ovarian 84.2% | SK-OV-3 ovarian 75.1% | OVCAR-3 ovarian 94.5% | HS 578T breast 111%

ClCCN1c2ccccc2Oc2ccccc21
inactive: MOLT-4 leukemia 109% | SR leukemia 93.1% | RPMI-8226 leukemia 98.4% | OVCAR-8 ovarian 102% | OVCAR-5 ovarian 105% | OVCAR-4 ovarian 103% | SK-OV-3 ovarian 114% | IGROV1 ovarian 103% | HS 578T breast 117%

O=[N+]([O-])c1cc(Oc2ccc([N+](=O)[O-])cc2C(F)(F)F)cc([N+](=O)[O-])c1
inactive: MOLT-4 leukemia 67.1% | SR leukemia 94.4% | RPMI-8226 leukemia 91.8% | OVCAR-8 ovarian 96.7% | OVCAR-5 ovarian 114% | OVCAR-4 ovarian 79.3% | SK-OV-3 ovarian 107% | IGROV1 ovarian 98.7% | OVCAR-3 ovarian 90.9% | HS 578T breast 104%

O=[As](O)(c1ccccc1)c1ccc(O)cc1
inactive: MOLT-4 leukemia 102% | SR leukemia 100% | RPMI-8226 leukemia 81.6% | OVCAR-8 ovarian 96.8% | OVCAR-5 ovarian 80.9% | OVCAR-4 ovarian 106% | SK-OV-3 ovarian 102% | OVCAR-3 ovarian 110% | HS 578T breast 113%
